ChEMBL document CHEMBL3421591, “Improved Synthesis of Biotinol-5'-AMP: Implications for Antibacterial Discovery” (ACS Med Chem Lett, 2015)

By UniProt entry, the sequences of proteins in these tests, tags left out.
UniProt P06709, whole entry: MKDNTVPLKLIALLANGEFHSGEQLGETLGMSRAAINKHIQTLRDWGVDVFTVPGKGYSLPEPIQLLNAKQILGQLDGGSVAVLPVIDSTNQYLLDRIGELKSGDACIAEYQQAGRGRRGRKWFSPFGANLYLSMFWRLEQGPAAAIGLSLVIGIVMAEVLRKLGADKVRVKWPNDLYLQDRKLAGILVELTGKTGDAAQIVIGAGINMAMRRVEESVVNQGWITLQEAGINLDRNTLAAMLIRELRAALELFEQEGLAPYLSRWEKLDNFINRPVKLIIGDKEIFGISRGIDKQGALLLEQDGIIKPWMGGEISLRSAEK

How the values were obtained:
[1] = molecular target: Bifunctional ligase/repressor BirA (Escherichia coli (strain K12), UniProt P06709); assay: Inhibition of Escherichia coli recombinant BPL using 3H-biotin as substrate after 10 mins by liquid scintillation counting analysis; details: read-out: Ki(app)
Biotin--protein ligase = molecular target: T1, Biotin--protein ligase (Homo sapiens, UniProt P50747); assay: Inhibition of human recombinant BPL using 3H-biotin as substrate after 10 mins by liquid scintillation counting analysis; details: read-out: Ki(app)
T1 sequence (P50747 whole entry): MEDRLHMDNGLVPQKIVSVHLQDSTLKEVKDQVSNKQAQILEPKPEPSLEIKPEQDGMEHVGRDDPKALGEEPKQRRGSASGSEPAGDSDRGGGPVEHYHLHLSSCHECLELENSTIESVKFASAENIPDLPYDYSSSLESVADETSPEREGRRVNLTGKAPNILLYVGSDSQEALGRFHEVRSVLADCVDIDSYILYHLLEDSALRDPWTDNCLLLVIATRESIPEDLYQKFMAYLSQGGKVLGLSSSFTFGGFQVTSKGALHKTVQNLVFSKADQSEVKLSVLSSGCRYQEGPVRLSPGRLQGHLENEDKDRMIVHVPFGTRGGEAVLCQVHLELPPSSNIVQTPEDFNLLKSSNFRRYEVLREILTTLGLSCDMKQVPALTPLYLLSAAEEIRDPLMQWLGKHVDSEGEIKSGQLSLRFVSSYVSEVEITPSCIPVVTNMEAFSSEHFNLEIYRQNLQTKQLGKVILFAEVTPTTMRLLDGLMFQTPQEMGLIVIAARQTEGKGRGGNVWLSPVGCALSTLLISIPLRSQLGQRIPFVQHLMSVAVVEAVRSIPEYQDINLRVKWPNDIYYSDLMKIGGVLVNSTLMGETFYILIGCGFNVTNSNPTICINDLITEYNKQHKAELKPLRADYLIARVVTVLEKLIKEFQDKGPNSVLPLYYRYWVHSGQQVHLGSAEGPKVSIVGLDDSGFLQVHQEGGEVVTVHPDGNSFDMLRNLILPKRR

Which results are given for `Nc1ncnc2c1ncn2[C@@H]1O[C@H](COP(=O)(O)OCCCCC[C@@H]2SC[C@@H]3NC(=O)N[C@@H]32)[C@@H](O)[C@H]1O`?
Ki [1]: 87 nM; Ki (Biotin--protein ligase): 182 nM
